The assay has as its system IL 2 help in IFN production. Kind of assay: IL 2 helper signal for IFN production in helper cell depleted spleen cell cultures. It is filed as cell-based, mouse. Particulars: Expt 1, IL 2 3 U/ml, no binding peptide.

“IL 2: recombinant human IL 2 (Hoffman-La Roche)” registered an IFN of 300 ± 71 U/ml.

The values above are taken from US4950650A, “Novel arginine vasopressin-binding peptides” (University of Florida, priority 1988, dated 1990).
